Experimental data published in US7803788B2, “Prodrugs of phosphonate nucoleotide analogues” (Gilead Sciences, Inc., priority 2000, dated 2010).

Tests used:
[1] = Stability in human plasma; type: in vitro ADME; details: 37° C., TBS pH 7.5
[2] = test system: PLCE (porcine liver carboxyesterase); experiment: PLCE hydrolysis; type: in vitro ADME; details: 37° C., PBS pH 7.4

**Q.** Which results are given for `CC(C)OC(=O)[C@H](C)N[P@](=O)(CO[C@H](C)Cn1cnc2c(N)ncnc21)Oc1ccccc1` [compound 3]?
**A.** Human Plasma Stability (HP) product [1]: Met. Y; PLCE hydrolysis product [2]: Met. X & PMPA
